Here are results for 1 substance from patent US20060211764A1, “Cell activator, process for producing cell activator and apparatus therefor” (priority 2002, published 2006).

The nature of this data set: Lethal dose. To be noted: in vivo.

For the substance Cyclic Poly-lactate [CPL], the lethal dose entry is given as “cannot be determined”.
